Key:
[1] = biological target: Indoleamine 2,3-dioxygenase 1 (Homo sapiens, UniProt P14902)
[2] = biological target: Tryptophan 2,3-dioxygenase (Homo sapiens, UniProt P48775); assay: Inhibition of recombinant human TDO2 expressed in Escherichia coli BL21 (DE3) assessed as reduction in N-formylkynurenine formation using L-tryptophan as substrate incubated for 30 mins by methylene blue reagent based concurrent assay

Protein sequences, listed by entry. Tags and fused reporters are not part of them. Lines headed by an entry give the natural chain unless they say otherwise; changes in a name come on top.
UniProt P14902, whole entry, looked up: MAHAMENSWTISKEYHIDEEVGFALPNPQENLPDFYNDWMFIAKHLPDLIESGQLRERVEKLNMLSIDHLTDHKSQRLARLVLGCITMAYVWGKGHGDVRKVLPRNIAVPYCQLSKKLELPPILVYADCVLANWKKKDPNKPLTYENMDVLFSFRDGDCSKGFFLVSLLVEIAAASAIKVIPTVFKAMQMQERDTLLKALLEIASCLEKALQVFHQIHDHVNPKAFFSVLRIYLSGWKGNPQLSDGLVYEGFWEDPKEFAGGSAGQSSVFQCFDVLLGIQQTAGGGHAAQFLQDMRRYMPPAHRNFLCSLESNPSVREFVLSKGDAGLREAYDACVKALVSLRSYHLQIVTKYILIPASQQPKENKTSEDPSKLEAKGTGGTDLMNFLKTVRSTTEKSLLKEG
UniProt P48775: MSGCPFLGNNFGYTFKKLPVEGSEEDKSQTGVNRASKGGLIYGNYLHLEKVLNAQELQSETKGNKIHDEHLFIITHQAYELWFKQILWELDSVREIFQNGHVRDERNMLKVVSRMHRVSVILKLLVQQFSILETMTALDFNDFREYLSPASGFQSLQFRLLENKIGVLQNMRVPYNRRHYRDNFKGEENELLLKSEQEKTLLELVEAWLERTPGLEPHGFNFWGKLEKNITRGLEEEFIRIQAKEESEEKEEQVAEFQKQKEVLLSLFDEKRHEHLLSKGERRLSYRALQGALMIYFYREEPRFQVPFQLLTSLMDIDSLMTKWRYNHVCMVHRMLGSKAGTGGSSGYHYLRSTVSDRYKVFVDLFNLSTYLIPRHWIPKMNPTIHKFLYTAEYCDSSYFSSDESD

Nc1cccc2c([As](=O)(O)O)cccc12
IC50 [1]: 45.7 µM
IC50 [2]: 37.9 µM
